## scFv variants of Ab-14 (heavy chain) against a SARS-CoV-2 spike peptide

Target peptide (SARS-CoV-2 spike, HR2 region): PDVDLGDISGINAS

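The starting antibody came from a phage panning campaign against this peptide. This is the validation round: designs drawn from the data on random variants, tested in the same kind of assay. Group labels follow the data file (Ctrl: baseline library sampled from a position-specific scoring matrix, with some repeated check sequences; En: ensemble of fine-tuned language models; HC: hill climbing; Gen: genetic algorithm; Gibbs: Gibbs sampling; a sequence that several methods proposed may carry one label only). In AlphaSeq, yeast of one mating type display the scFv and yeast of the other type display the target. Binding brings cells together so that they mate, and sequencing counts the barcode pairs among the diploids. Scores were corrected for input abundance and mapped to Kd with protein pairs of known affinity run in the same pool. The assay was run in six technical replicates.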

Parent: Ab-14, a human scFv built as VH, a 15-residue (Gly4Ser)3 linker, VL. Only the CDRs of the heavy chain vary.
VH: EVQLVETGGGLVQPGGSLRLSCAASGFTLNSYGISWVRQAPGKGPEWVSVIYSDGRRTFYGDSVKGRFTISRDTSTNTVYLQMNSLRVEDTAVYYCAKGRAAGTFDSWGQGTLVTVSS
VL: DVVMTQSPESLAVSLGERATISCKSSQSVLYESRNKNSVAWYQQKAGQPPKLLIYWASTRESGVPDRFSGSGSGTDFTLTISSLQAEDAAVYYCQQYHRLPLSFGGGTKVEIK

Variants are written as CDR1, CDR2 and CDR3 of the heavy chain (limits as in the source). Parent: GFTLNSYGIS, VIYSDGRRTFYGDSVK, GRAAGTFDS.
This list holds designs with more than six substitutions.
Each Kd is an estimate from the mating assay, the geometric mean of the replicates in which the pair was seen; lower is stronger.
"nd" means that the variant was in the library but no mating with the target was seen in any replicate; the authors take this as a sign of poor binding, and no number exists.
Of ten entries with the parent sequence, four were seen in most replicates (averages 2.2 nM to 240 nM), three in one and three in none, so single entries are noisy.

With GFDINEYGIS | VIYADGMRQAYAQNVK | GVHVCWVVI [En_Gibbs] the result was 490 pM (6 of 6 replicates; controls 0 of 18).
With GESLNEYGIS | VIYADGQRVKYSNNVK | GLHFGVFDM [En_Gibbs] the result was nd (0 of 6 replicates; controls 0 of 18).
With GFDLNEYGIS | VIYADGIRTAYADSVK | GEVAGTFDV [En_Gen] the result was 170 pM (6 of 6 replicates; controls 0 of 18).
With GFDLNEYGIS | VIYADGRRTAYSDSVK | GNVAGTFDT [En_Gen] the result was 400 pM (6 of 6 replicates; controls 0 of 18).
With GFDLNEYGIS | VIYADGMRTAYADSVK | GQNAGTFDM [En_Gen] the result was 270 pM (6 of 6 replicates; controls 0 of 18).
With GFTLLEYGIS | VIYSDGRRTFYGDIVK | ANAATWFDS [Ctrl] the result was nd (0 of 6 replicates; controls 0 of 18).
With GFDLNEYGIS | VIYADGRRTFYTDSVK | GQLAGTFDV [En_HC] the result was 380 pM (6 of 6 replicates; controls 0 of 18).
With GFELDEYGIS | VIYADGVRTQYKQSFK | GGIFGYIAG [En_Gibbs] the result was nd (0 of 6 replicates; controls 0 of 18).
With GFDLNEYGIS | VIYADGRRTAYADSVK | GEVAGTFDQ [En_Gen] the result was 240 pM (5 of 6 replicates; controls 0 of 18).
With GFDLDEYGIS | VIYADGMRTAYADDVK | GNEAGTFDL [En_Gen] the result was 1.4 nM (6 of 6 replicates; controls 1 of 18).
With GEDLDEYGIS | VIYADGRRQYYANNVK | GDIADVFDL [En_Gibbs] the result was 440 nM (2 of 6 replicates; controls 0 of 18).
With GFDLNEYGIS | VIYADGRRTFYADSVK | GQNAGTFTL [En_HC] the result was 1.4 nM (6 of 6 replicates; controls 1 of 18).
With GFDLDEYGIS | VIYADGKRTAYSDSVK | GQNAGTFDI [En_Gen] the result was 370 pM (6 of 6 replicates; controls 0 of 18).
With GFDLDEYGIS | VIYADGSRTAYSDSVK | GENAGTFDL [En_Gen] the result was 2.4 nM (6 of 6 replicates; controls 0 of 18).
With GFDLNEYGIS | VIYADGRRTQYIDSVK | GETAGTFDQ [En_HC] the result was nd (0 of 6 replicates; controls 1 of 18).
With GFDLNEYGIS | VIYADGKRTFYADSVK | GTAAGTFDQ [En_HC] the result was 6.3 nM (6 of 6 replicates; controls 0 of 18).
With GFSFNEYGIS | VIYADGKRTAYANNVK | GGKDAAFDI [En_Gibbs] the result was 950 nM (2 of 6 replicates; controls 1 of 18).
With GFDLEEYGIS | VIYADGRRSSYTDKVK | GGTVQMNGQ [En_Gibbs] the result was nd (0 of 6 replicates; controls 0 of 18).
With GFDLGEYGIS | VIYADGRRFAYSQSVK | GLNEGMLVI [En_Gibbs] the result was nd (0 of 6 replicates; controls 0 of 18).
With GFDLEEYGIS | VIYADGMRTAYADSVK | GNVAGTFDQ [En_Gen] the result was 500 pM (6 of 6 replicates; controls 0 of 18).
With GQDINEYGIS | VIYADGMRKAYVQNVK | GENTFSFEI [En_Gibbs] the result was nd (0 of 6 replicates; controls 0 of 18).
With GFDLNEYGIS | VIYADGMRTYYVDSVK | GENAGTFDV [En_Gen] the result was 580 pM (6 of 6 replicates; controls 0 of 18).
With GFDLNEYGIS | VIYADGRRTFYTDSVK | GEFAGTFDE [En_HC] the result was 370 pM (6 of 6 replicates; controls 0 of 18).
With GFDLNEYGIS | VIYADGVRTAYSDSVK | GEVAGTFDV [En_Gen] the result was 530 pM (6 of 6 replicates; controls 0 of 18).
With GFDLNEYGIS | VIYADGVRTAYIDSVK | GQVAGTFDV [En_Gen] the result was 550 pM (6 of 6 replicates; controls 1 of 18).
With GFDLNEYGIS | VIYADGKRTAYADDVK | GNEAGTFDI [En_Gen] the result was 590 pM (6 of 6 replicates; controls 0 of 18).
With GFNLEEYGIS | VIYADGVRSSYIEDVK | GQWNADFIV [En_Gibbs] the result was nd (0 of 6 replicates; controls 0 of 18).
With GFDLNEYGIS | VIYADGMRTAYADNVK | GNTAGTFDI [En_Gen] the result was 840 pM (6 of 6 replicates; controls 0 of 18).
With GFDLNEYGIS | VIYADGVRQAYADDVK | GNVAGTFDV [En_Gen] the result was 1.7 nM (6 of 6 replicates; controls 0 of 18).
With GFDLDEYGIS | VIYADGRRTAYSDSVK | GNTAGTFDQ [En_Gen] the result was 250 pM (6 of 6 replicates; controls 0 of 18).
With GEDLDEYGVS | VIYADGRKQSYSNSVK | GAIAGNFDA [En_Gibbs] the result was nd (0 of 6 replicates; controls 0 of 18).
With GFDLNEYGIS | VIYADGVRTYYADSVK | GEVAGTFDL [En_Gen] the result was 200 pM (6 of 6 replicates; controls 1 of 18).
With GFDIEEYGIS | VIYADGSRTEYSDSVK | SGYHFNMDL [En_Gibbs] the result was nd (0 of 6 replicates; controls 0 of 18).
With GFDINEYGIS | VIYADGVRTHYVQDVK | GKHTGMKMA [En_Gibbs] the result was nd (0 of 6 replicates; controls 0 of 18).
With GFDLNEYGIS | VIYADGRRTFYADSVK | GGNAGTFDQ [En_HC] the result was 240 pM (6 of 6 replicates; controls 1 of 18).
With GEDLLEYGIS | VIYADGIRVAYTNQVK | GNVAGFFTL [En_Gibbs] the result was nd (0 of 6 replicates; controls 0 of 18).
With GNDLNEYGIS | VIYADGQRTQYASSFK | GDLAGYFES [En_Gibbs] the result was nd (0 of 6 replicates; controls 0 of 18).
With GFDLNEYGIS | VIYADGRRTFYADSVK | GEIAGTFVF [En_HC] the result was 920 pM (6 of 6 replicates; controls 1 of 18).
With GFDLDEYGIS | VIYADGMRTAYADSVK | GGNAGTFDI [En_Gen] the result was 500 pM (6 of 6 replicates; controls 0 of 18).
With GFKLDEYGIS | VIYADGRRTFYADSVK | GEAAGTFDI [En_HC] the result was 280 pM (6 of 6 replicates; controls 0 of 18).
With GFNLDEYGIS | VIYADGMRTQYKDQVK | GNLVAHNMT [En_Gibbs] the result was 280 nM (1 of 6 replicates; controls 0 of 18).
With GFDLNEYGIS | VIYADGVRTYYADSVK | GNQAGTFDI [En_Gen] the result was 250 pM (6 of 6 replicates; controls 0 of 18).
With GFDLVEYGIH | VIYADGIRTVVSNDVK | GNVAGTIDV [En_Gibbs] the result was 420 pM (6 of 6 replicates; controls 0 of 18).
With GFDLDEYGIS | VIYADGMRTAYADSVK | GNEAGTFDM [En_Gen] the result was 290 pM (6 of 6 replicates; controls 0 of 18).
With GKDIESYGVS | VIYADGKRTAYANNFK | GSNAGSFVS [En_Gibbs] the result was 120 nM (3 of 6 replicates; controls 1 of 18).
With GFDLNEYGIS | VIYADGMRTFYSDSVK | GENAGTFDV [En_Gen] the result was 410 pM (6 of 6 replicates; controls 1 of 18).
With GFDLDEYGIS | VIYADGRRTAYADKVK | GNNAGTFDV [En_Gen] the result was 730 pM (6 of 6 replicates; controls 0 of 18).
With GFNLDEYGIS | VIYADGMRTAFGDNVK | GTNFGDTVF [En_Gibbs] the result was 1.1 nM (6 of 6 replicates; controls 0 of 18).
With GFDLEEYGIS | VIYADGMRTAYADSVK | GNVAGTFDL [En_Gen] the result was 550 pM (6 of 6 replicates; controls 0 of 18).

From the list, the first 5 with no signal in any replicate:

| CDR-H1 | CDR-H2 | CDR-H3 | group | Kd (apparent) | detected | signal with controls |
|---|---|---|---|---|---|---|
| GESLNEYGIS | VIYADGQRVKYSNNVK | GLHFGVFDM | En_Gibbs | nd | 0/6 | 0/18 |
| GFTLLEYGIS | VIYSDGRRTFYGDIVK | ANAATWFDS | Ctrl | nd | 0/6 | 0/18 |
| GFELDEYGIS | VIYADGVRTQYKQSFK | GGIFGYIAG | En_Gibbs | nd | 0/6 | 0/18 |
| GFDLNEYGIS | VIYADGRRTQYIDSVK | GETAGTFDQ | En_HC | nd | 0/6 | 1/18 |
| GFDLEEYGIS | VIYADGRRSSYTDKVK | GGTVQMNGQ | En_Gibbs | nd | 0/6 | 0/18 |

Empty control strains, which show no peptide, gave a signal in 1% of pairings with all heavy chain designs; the median was 120 nM and 95% of these signals were weaker than 7.0 nM. No background was subtracted. Also given: how often the same scFv was detected with the empty control strains.
A sequence measured in both rounds can read differently, since the two assays cover different ranges.
The authors averaged sequences with at least three values out of six and counted those with two or fewer as poor binders.

From the AlphaSeq antibody data of Li et al. 2023 (doi:10.1038/s41467-023-39022-2), copy in the FLAb collection.